Our source for the Kd and koff values is doi:10.1101/2024.09.13.612811 (bioRxiv, 2024).

The target in this test is PA tag antigen fused with maltose-binding protein (MBP-PA) (human). The test can be described thus: BLI. Background: BLI is a label-free optical method that tracks binding on a fibre tip over time.

What is called Kd is the equilibrium constant for the complex coming apart. Read a high Kd as weaker binding. As usually defined, the koff is the rate constant with which the complex falls apart. wild-type anti-PA tag Fab (NZ-1) yielded a Kd of 2.06 nM and a koff of 0.00055 s⁻¹.
